Shown are actives, neighbours in structure and some others; about 16% of the full set was active somewhere.
TDP1 inh: inhibitors of human tyrosyl-DNA phosphodiesterase TDP1; 0.28% of 350,000 active; recombinant TDP1, AlphaScreen DNA substrate cleavage; Potency, µM (titrated, usually from 130 µM), for the others: at the top dose activity change, negative = inhibition, actives largely listed as inhibitors; note: potency is the fitted concentration of half-maximal effect; % is set by controls: 0 for no effect and ±100 for the full control effect; nearly all actives have a fitted effect of over 40% in size
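E. coli-derived human Tdp1, 1 nM final. Cpd preinc 15 min RT; substrate 15 nM final, 5 min RT; AS bead mix 10 ug/ml final, 10 min RT. Signal loss = tyrosine-FITC cleavage. No-enzyme wells = max signal.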
TDP1 cell noCPT: qHTS for Inhibitors of human tyrosyl-DNA phosphodiesterase 1 (TDP1): qHTS in cells in absence of CPT. Potency, µM (top dose mostly 46.2 µM), for the others: top-dose activity change, negative = growth inhibition, hits mostly inhibitors. DT40 Tdp1-/- hTDP1 cells, no CPT, ATP luminescence, 48 h. 15% of 420,000 active; note: potency is the fitted concentration of half-maximal effect; % is set by controls: 0 for no effect and ±100 for the full control effect; nearly all actives have a fitted effect of over 55% in size
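Readout: luminescence from CellTiter-Glo after 30 min in the dark at RT. Cells: DT40 Tdp1-/- with stable hTDP1, 400/well. Exposure: compounds alone, ≥48 hr, 37 °C.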
uPA generation: blocks generation of uPA at the cell surface. 0.31% of 330,000 active. cell surface uPA generation assay, qHTS. Potency, µM (titrated, usually from 38.3 µM), for the others: at the top dose activity change, negative = inhibition, actives largely listed as inhibitors; active = well fitted inhibition curve with a large enough effect; inconclusive = small, poorly fitted or top-dose-only effect; inactive = no such curve, though single readings can be large or run the other way; tested in mouse RAW 264.7 cells; note: potency is the fitted concentration of half-maximal effect; % is set by controls: 0 for no effect and ±100 for the full control effect; nearly all actives have a fitted effect of over 55% in size
miR-21 reporter: raises the signal of a miR-21 reporter; Potency, µM (doses to about 38.3 µM), inactives show top-dose reporter change, positive = more light; HeLa miR-21 FLuc reporter, luciferase, 48 h; AID 2288; 340,000 tested, under 10 active; active = well fitted rising curve with a large enough effect; inconclusive = small, poorly fitted or top-dose-only effect; inactive = no such curve, though single readings can be large or run the other way;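 further: % of control where 0% means no effect; miR-21 action dims this reporter so a rising signal means less miR-21 action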
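Compounds were titrated across several concentrations (up to approximately 40 uM) and incubated 48 hours with HeLa miR-21-FLuc reporter cells (miR-21 target sequence downstream of FLuc, endogenous miR-21). Readout was firefly luciferase luminescence after lytic detection reagent.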
TDP1 cell CPT: growth inhibition of DT40 Tdp1-/-;hTDP1 cells with camptothecin (screen for TDP1 inhibitors); chicken DT40 Tdp1-/-;hTDP1 cells + 20 nM CPT, ATP luminescence, 48 h; Potency, µM (doses to about 46.2 µM), for the others: at the top dose activity change, negative = growth inhibition, hits mostly inhibitors; 12% of 420,000 active; note: potency is the fitted concentration of half-maximal effect; % is set by controls: 0 for no effect and ±100 for the full control effect; nearly all actives have a fitted effect of over 55% in size
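Cell growth measured by CellTiter-Glo luminescence after a minimum 48 h, 37 C compound exposure with 20 nM CPT in Tdp1-knockout DT40 cells stably expressing hTDP1, seeded 400/well; qHTS titration format.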
The depositor's hits bear a star; [ ] = dose if it differs, or a comment. Unless noted, calls come from the whole dose curve; as a rule, active = well fitted curve in the direction sought with a large enough effect; inconclusive = small, poorly fitted or top-dose-only effect, or another doubt; inactive = no such curve, though single readings can be large; an effect the other way counts as inactive or inconclusive.

Screening COc1cc(OC)c(NC(c2nnc(-c3ccccc3)o2)c2ccc(F)cc2Cl)cc1Cl (stereo not drawn) returned TDP1 inh 7.5%, TDP1 cell noCPT 18.4µM*, miR-21 reporter -8.3% and TDP1 cell CPT inconclusive.
For c1ccc(N=c2nc(-c3ccccc3)n(-c3ccccc3)s2)cc1 the results were TDP1 cell noCPT 5.62µM* and TDP1 cell CPT 6.31µM*.
`c1ccc(Cn2sc(=Nc3ccccc3)nc2-c2ccccc2)cc1` gave TDP1 cell noCPT -16.7% and TDP1 cell CPT 2.7%.
Cc1cc(S(=O)(=O)n2cnc3ccccc32)c(C)cc1Cl was read as TDP1 inh 2.5%, TDP1 cell noCPT -7.2%, uPA generation 1.6%, miR-21 reporter -11.4% and TDP1 cell CPT 25.6%.
For COC(=O)[C@]12CCCCC=C1N(Cc1ccc(Cl)cc1Cl)C(=O)[C@H](CC(=O)N1CCSCC1)C2 the results were TDP1 cell noCPT 16.4µM* and TDP1 cell CPT inconclusive.
Screening COC(=O)[C@]12CCCCC=C1N(Cc1ccc(Cl)cc1Cl)C(=O)[C@H](CC(=O)N1CCCCC1)C2 returned TDP1 cell noCPT 18.4µM* and TDP1 cell CPT inconclusive.
C[C@H](CO)N1C[C@H](C)[C@@H](CN(C)C(=O)NC2CCCCC2)Oc2ccc(NC(=O)C3CC3)cc2C1=O was read as TDP1 cell noCPT -18.4%, uPA generation 4.7% and TDP1 cell CPT -9.1%.
`Cn1nnnc1Sc1ncnc2scc(-c3cccc(S(C)(=O)=O)c3)c12` gave TDP1 inh 1.3% and uPA generation -6.1%.
`Cn1nnnc1Sc1ncnc2scc(-c3cccc(Br)c3)c12` gave TDP1 inh 1.6% and uPA generation 8.91µM*.
Screening Cn1nnnc1Sc1ncnc2scc(-c3ccc(Cl)cc3)c12 returned TDP1 inh 3.5% and uPA generation inconclusive.
`Cn1nnnc1Sc1ncnc2scc(-c3ccccc3Cl)c12` gave TDP1 inh 2.2% and uPA generation 10µM*.
For COCCn1c(SC(C(=O)Nc2cc(C)ccc2OC)c2ccccc2)nnc1-c1ccc(Cl)cc1 (stereo not drawn) the results were TDP1 inh 8.3%, TDP1 cell noCPT 0.4%, uPA generation 1.4%, miR-21 reporter 10.4% and TDP1 cell CPT -5.6%.

Some of these compounds in order of formula weight, descending.
For COC(=O)[C@]12CCCCC=C1N(Cc1ccc(Cl)cc1Cl)C(=O)[C@H](CC(=O)N1CCSCC1)C2 the results were TDP1 cell noCPT 16.4µM* and TDP1 cell CPT inconclusive.
C[C@H](CO)N1C[C@H](C)[C@@H](CN(C)C(=O)NC2CCCCC2)Oc2ccc(NC(=O)C3CC3)cc2C1=O was read as TDP1 cell noCPT -18.4%, uPA generation 4.7% and TDP1 cell CPT -9.1%.
Cc1cc(S(=O)(=O)n2cnc3ccccc32)c(C)cc1Cl was read as TDP1 inh 2.5%, TDP1 cell noCPT -7.2%, uPA generation 1.6%, miR-21 reporter -11.4% and TDP1 cell CPT 25.6%.

More compounds
COCCCNCC1C(Oc2ccc(Cl)cc2)C(=O)N1c1ccccc1C (stereo not drawn) was read as TDP1 inh 1.1%, TDP1 cell noCPT 16.4µM*, uPA generation -7.0%, miR-21 reporter -5.0% and TDP1 cell CPT inconclusive.
For Cc1ccccc1N1C(=O)C(Oc2ccc(Cl)cc2)C1CNCCCOC(C)C (stereo not drawn) the results were TDP1 inh -1.1%, TDP1 cell noCPT 25.9µM*, uPA generation -6.5%, miR-21 reporter -0.5% and TDP1 cell CPT inconclusive.
`CCNc1ccc(Br)cc(C(=O)/C=C/c2ccccc2Cl)c1=O` gave TDP1 cell noCPT 10.3µM* and TDP1 cell CPT 9.2µM*.
Screening CNc1ccc(Br)cc(C(=O)/C=C/c2cccc(Cl)c2Cl)c1=O returned TDP1 inh -3.0%, TDP1 cell noCPT 16.4µM*, uPA generation inconclusive, miR-21 reporter -5.7% and TDP1 cell CPT 18.4µM*.
CNc1ccc(Br)cc(C(=O)/C=C/c2cccc(OC)c2OC)c1=O was read as TDP1 inh 3.6%[56.1 µM], TDP1 cell noCPT 1.2%, uPA generation 4.1%, miR-21 reporter -11.1% and TDP1 cell CPT -13.4%.
For CCC(CC)NC(=O)/C=C/c1ccccc1Cl the results were TDP1 inh 3.4%, TDP1 cell noCPT inconclusive, uPA generation -6.8%, miR-21 reporter -54.0% and TDP1 cell CPT inconclusive.
Screening CC(=O)c1c(C)[nH]c(C(=O)OCC(=O)Nc2ccc3[nH]c(=O)[nH]c3c2)c1C returned TDP1 inh -6.4%[0.505 µM], TDP1 cell noCPT 3.7%, uPA generation 2.5% and TDP1 cell CPT 2.6%.
For Cc1cc(C)n(C(=O)/C(C#N)=C/N(C)C)n1 the results were TDP1 inh 1.6%, TDP1 cell noCPT -17.2%, uPA generation -1.3%, miR-21 reporter -0.1% and TDP1 cell CPT -1.7%.
Screening Cc1cc(C)c2sc(NNC(=O)c3ccc(S(=O)(=O)N4CCc5ccccc5C4)cc3)nc2c1 returned TDP1 inh 10.5%, TDP1 cell noCPT 2.59µM*, uPA generation inconclusive, miR-21 reporter 12.2% and TDP1 cell CPT 3.26µM*.
For COc1ccc2nc(NC(=O)c3cc(=O)c4ccccc4o3)sc2c1 the results were TDP1 inh 6.1%, TDP1 cell noCPT -25.2%, miR-21 reporter -58.7% and TDP1 cell CPT -1.7%.
Screening Cc1cc(C)c2nc(NNC(=O)c3cc(=O)c4ccccc4o3)sc2c1 returned TDP1 cell noCPT inconclusive, uPA generation 18.9%, miR-21 reporter -26.1% and TDP1 cell CPT 29.1µM*.
Screening CCc1nnc(NC(=O)c2ccc(S(=O)(=O)N3CCc4ccccc4C3)cc2)s1 returned TDP1 inh 1.1%, TDP1 cell noCPT inconclusive, uPA generation -2.3%, miR-21 reporter -11.3% and TDP1 cell CPT inconclusive.
Cc1cc(C)c2nc(NNC(=O)c3ccc(S(=O)(=O)N4CCc5ccccc5C4)cc3)sc2c1 was read as TDP1 inh 0.0%, TDP1 cell noCPT 4.61µM*, uPA generation inconclusive, miR-21 reporter 6.7% and TDP1 cell CPT 5.17µM*.
Screening Cc1nnc(NC(=O)c2ccc(S(=O)(=O)N3CCc4ccccc4C3)cc2)o1 returned TDP1 inh 10.8%, TDP1 cell noCPT inconclusive, uPA generation -17.2%, miR-21 reporter -2.3% and TDP1 cell CPT inconclusive.
For COc1ccc(-c2cc(C(=O)NCCc3ccccc3)c3cc(C(C)C)ccc3n2)cc1 the results were TDP1 inh -2.6%, TDP1 cell noCPT inconclusive, miR-21 reporter -16.4% and TDP1 cell CPT inconclusive.
For Cc1ccc(-n2nc(C(=O)NCCc3cccc(C)c3)c3c4ccccc4n(C)c3c2=O)cc1 the results were TDP1 inh 0.0%, TDP1 cell noCPT -3.2%, miR-21 reporter -3.1% and TDP1 cell CPT -16.4%.
`CCOc1ccccc1N(C)C(=O)c1nn(-c2ccc(C)cc2)c(=O)c2c1c1ccccc1n2C` gave TDP1 inh -2.3%, TDP1 cell noCPT -12.6%, miR-21 reporter 0.4% and TDP1 cell CPT -6.0%.
For Cc1ccc(-n2nc(C(=O)N(C)c3ccccc3Cl)c3c4ccccc4n(C)c3c2=O)cc1 the results were TDP1 inh 4.7%, TDP1 cell noCPT 13µM*, miR-21 reporter -3.9% and TDP1 cell CPT 18.4µM*.
`Cc1ccc(-n2nc(C(=O)N(C)Cc3ccccc3)c3c4ccccc4n(C)c3c2=O)cc1` gave TDP1 inh -2.9%, TDP1 cell noCPT 9.2µM*, miR-21 reporter 2.8% and TDP1 cell CPT 23.1µM*.
